Results as given in patent publication US10517878B2, “Serine/threonine kinase inhibitors” (GENENTECH, INC., priority 2013, dated 2019).

Chains of the proteins cited; added tags and fusions are not shown. Residues count along the entry.
UniProt P28482, 8-360: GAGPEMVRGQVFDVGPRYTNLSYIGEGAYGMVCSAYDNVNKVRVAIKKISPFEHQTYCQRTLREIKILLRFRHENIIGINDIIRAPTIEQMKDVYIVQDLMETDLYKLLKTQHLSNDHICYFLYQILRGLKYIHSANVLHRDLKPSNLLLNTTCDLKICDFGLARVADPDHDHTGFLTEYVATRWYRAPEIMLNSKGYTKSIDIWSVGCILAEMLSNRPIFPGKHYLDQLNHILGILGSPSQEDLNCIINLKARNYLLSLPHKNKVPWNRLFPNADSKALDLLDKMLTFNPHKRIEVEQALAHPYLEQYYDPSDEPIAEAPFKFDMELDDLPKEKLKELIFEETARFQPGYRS

Target: human ERK-2 (Mitogen Activated Kinase 1) (Homo sapiens (Human), UniProt P28482)
Assay: ERK-2 Enzymatic Assay
Type: biochemical
Conditions: human ERK-2 enzyme, S/T17 peptide substrate, 25 μM ATP; R/S = configuration of CR2R3
Procedure: Test compounds were diluted in DMSO in 3-fold serial dilutions at 100× final concentrations. […] The data collected from each well was fit to a straight line, and the resulting rates were used to calculate percent of control. Percent of control was plotted against compound concentration, and IC50 values were determined using a four-parameter fit.

Structure (SMILES) | IC50 [nM]
CN1C(=O)C[C@@H](Cc2ccccc2)c2nnc3cc(-c4ccnc(Nc5ccnn5C)n4)cc1n23 [(R) I-61] | 0.073
CN1C(=O)C[C@H](Cc2ccccc2)c2nnc3cc(-c4ccnc(Nc5ccnn5C)n4)cc1n23 [(S) I-61] | 5.83
